Laboratory results as given in patent US10681911B2, “Anthelminthic composition” (AgResearch Limited, priority 2016, dated 2020).

Type: physicochemical

Substance | pH 0
ammonium nitrate [NH4NO3 1.75%] | 6.6
ammonium nitrate [NH4NO3 3.5%] | 6.4
ammonium nitrate [NH4NO3 7%] | 6.3
